In this test the test system is Mushroom Tyrosinase (Sigma T3824). Nature of the test: General in vitro tyrosinase inhibition assay (L-Dopa oxidation to dopachrome). It counts as biochemical. The following applies: 0.5 mM L-Dopa, pH 7.0, 30° C., 475 nm, 18 Units Mushroom Tyrosinase.

In general, EC50 refers to the concentration giving half of the maximal effect.

Structures are written as SMILES.

In the case of `O=S(=O)(O)OCCSc1cc(O)ccc1O`, the EC50 was 4.81 mM.

The record behind these values is US20080286219A1, “Hydroquinone derivative skin brightening compounds” (priority 2007, published 2008).
